## Measured affinities in a library of Ab-14 heavy chain variants

Reference: Li et al. 2023, doi:10.1038/s41467-023-39022-2. File: FLAb, binding data.

Antigen: PDVDLGDISGINAS, a 14-residue peptide of the SARS-CoV-2 spike HR2 region.

Parent: Ab-14, a human scFv built as VH, a 15-residue (Gly4Ser)3 linker, VL. Only the CDRs of the heavy chain vary.
VH: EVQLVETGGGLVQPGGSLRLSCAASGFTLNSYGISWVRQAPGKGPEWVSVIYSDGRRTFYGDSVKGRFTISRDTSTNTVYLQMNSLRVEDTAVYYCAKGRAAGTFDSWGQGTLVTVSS
VL: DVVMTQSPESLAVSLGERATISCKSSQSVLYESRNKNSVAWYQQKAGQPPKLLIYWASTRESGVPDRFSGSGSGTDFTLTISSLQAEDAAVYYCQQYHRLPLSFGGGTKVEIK

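The starting antibody came from a phage panning campaign against this peptide. The variants were designed computationally from a first round of random CDR variants and then made and measured. Group labels follow the data file (Ctrl: baseline library sampled from a position-specific scoring matrix, with some repeated check sequences; Rand: our label for a block that the file lists under HC and that is probably the random mutants of the ten best first-round binders; GP: Gaussian process model; GPLM: also part of the Gaussian process libraries; HC: hill climbing; Gen: genetic algorithm; Gibbs: Gibbs sampling; a sequence that several methods proposed may carry one label only). AlphaSeq pools MATa yeast showing the antibodies with MATalpha yeast showing the peptide. After mating in shaken culture at 30 °C for 16 h, diploids were selected and their barcode pairs sequenced. A regression on co-assayed BCL2-family reference pairs converts the normalised counts of each replicate to an apparent Kd. Each pool was mated in six replicate cultures.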

The parent's heavy chain CDRs are GFTLNSYGIS, VIYSDGRRTFYGDSVK, GRAAGTFDS; each variant's own CDRs replace them letter for letter.
This list holds designs with at most six substitutions.
Values are apparent Kd, the geometric mean of the replicates that gave a signal; lower means stronger binding.
Where no diploid with the target was found in any replicate, the entry reads "nd": below detection, most likely a poor binder, though not proof of it.
In the paper, a design with two or fewer of six values counts as a poor binder.
Background: pairings of all heavy chain designs with three empty control strains gave a value in 1% of cases (median 120 nM, 5th percentile 7.0 nM). Values in that range, when seen in few replicates, are hard to tell from nonspecific mating.
Of ten entries with the parent sequence, four were seen in most replicates (averages 2.2 nM to 240 nM), three in one and three in none, so single entries are noisy.
The range of this assay differs from that of the first round, and the authors advise against merging the two.

* GFSLNEYGIS / VIYSDGRRTFYCDSVK / GRNAGTFDS [GP_HC]: 50 nM (2 of 6 replicates)
* GFLLNDYGIS / VIYSDGRRTFYHDSVK / GRTAGTFDS [GPLM_Gibbs]: 4.1 nM (6 of 6 replicates)
* GFTLNSYGIS / VIYSDGRRQFYGDSVK / GRAAGTFDE [Ctrl]: 69 nM (1 of 6 replicates)
* GFTLNSYGIS / VIYSDGRRTFYGDSVK / WWEAGTSDS [Ctrl]: nd (0 of 6 replicates)
* GFTLNSYGIS / VISSDGRRTFYGDSVK / GRAAGTFDS [Ctrl]: 320 nM (1 of 6 replicates)
* GFTYNSYGIS / VIYSDGCRTFYDDSVK / GQLAGTFDS [Rand]: nd (0 of 6 replicates)
* GFSLNEYGIS / VIYSDGRRTFYADHVK / GRAAGTFDS [GP_Gibbs]: 5.1 nM (6 of 6 replicates)
* GFTLMSYGIS / VIYSDGRRTFYGDSVK / GREAGTFDS [Ctrl]: 8.2 nM (6 of 6 replicates)
* GFELNMYGIS / VIYSDGRRTFYGDSVK / GRYAGTFDS [GP_Gibbs]: 2.3 nM (3 of 6 replicates)
* QFTLESYGIS / VIYADGRRTFYGDSVK / GRAAGTFDS [GP_HC]: 9.0 nM (4 of 6 replicates)
* GFDLNSYGIS / VIYSDGRRTFYGGSVK / GRAPGWFNS [Rand]: nd (0 of 6 replicates)
* GFDLNSYGIS / VIYSDGRRTFYGDQVK / GRTAGTFDA [GP_Gen]: 3.0 nM (6 of 6 replicates)
* GFDLNQYGIS / VIYSDGRRTFYADSVK / GRAAGTFDS [GPLM_HC]: 440 pM (6 of 6 replicates)
* GFTLNKCGIS / VIYSDGRRTAYGDSVD / GSAAGTFDS [Ctrl]: nd (0 of 6 replicates)
* GFTLNSYGIS / VIYSDGKRTFYSDSVK / GKAAGTFDL [GPLM_Gibbs]: 8.8 nM (3 of 6 replicates)
* GFTLNSYGIS / VIYSDGRRTFYGDDVK / GRNAGTFDS [Ctrl]: 95 nM (3 of 6 replicates)
* GFELNSYGIS / VIYSDGRRTFYGDSVK / GRAAGTFDQ [Ctrl]: 60 nM (5 of 6 replicates)
* GMTLNSYGIS / VIYADGRRTFYGDSVK / GRAAGTFKS [GP_HC]: nd (0 of 6 replicates)
* GFTLNDYGIS / VIYADGRRTFYGDSVK / GQAAGTFIS [GPLM_HC]: 17 nM (5 of 6 replicates)
* GFDLNLYGIS / VIYSDGRRTFYDDSVK / GQEAGTFDS [GP_HC]: 730 pM (6 of 6 replicates)
* GFQLNEYGIS / VIYSDGRRTFYGDSVK / GRAAGTFWS [GP_HC]: nd (0 of 6 replicates)
* YFDLNSYGIS / VIYSDGRRTFYADSVK / GRNAGTFDS [GP_Gibbs]: 2.1 nM (6 of 6 replicates)
* GFDLNSYGIS / VIYSDGRRTFYSDSVK / GRAGGTFDS [GPLM_HC]: 9.4 nM (6 of 6 replicates)
* KFSLNSYGIS / VIYSDGRRTFYIDSVK / GRNAGTFDS [GP_Gibbs]: 130 nM (1 of 6 replicates)
* GFELNSYGIS / VIYSDGRREFYGDSVK / GSAAGTFDS [Ctrl]: 76 nM (2 of 6 replicates)
* GFTLNSYGIS / VIYSDGRRKFYDDSVK / GRLAGTFDS [Ctrl]: 4.1 nM (6 of 6 replicates)
* GFELNSYGIS / VIYSDGRRTFYGDSVK / GNVAGTFDS [GPLM_Gibbs]: 630 pM (6 of 6 replicates)
* GFTLNSYGIS / VIYSDGRRTFYGGSVK / GEAAGTSDS [Ctrl]: nd (0 of 6 replicates)
* GFTLNSYGIS / VIYSDGRRTFYSDSVK / GRIAGTFDS [GPLM_HC]: 16 nM (4 of 6 replicates)
* GFTLNSYGIS / VIYSDGLRTFYGDSVK / GKTAGTFDS [GP_Gibbs]: 560 nM (3 of 6 replicates)
* GFSLNNYGIS / VIYSDGRRTFYGDSVK / GQAAGTFDK [GPLM_Gen]: 4.3 nM (6 of 6 replicates)
* GFTLNDYGIS / VIYSDGRRTKYGDSVK / GRAALTFIT [Rand]: nd (0 of 6 replicates)

Extract of 4 entries:

- GFSLNEYGIS / VIYSDGRRTFYADHVK / GRAAGTFDS [GP_Gibbs]: 5.1 nM (6 of 6 replicates)
- GFQLNEYGIS / VIYSDGRRTFYGDSVK / GRAAGTFWS [GP_HC]: nd (0 of 6 replicates)
- GFTLNDYGIS / VIYSDGRRTKYGDSVK / GRAALTFIT [Rand]: nd (0 of 6 replicates)
- GFTLNSYGIS / VIYSDGRRTFYGDDVK / GRNAGTFDS [Ctrl]: 95 nM (3 of 6 replicates)